Source: ChEMBL document CHEMBL1649094, “First Selective CYP11B1 Inhibitors for the Treatment of Cortisol-Dependent Diseases” (ACS Med Chem Lett, 2011)

How the values were obtained:
Homo sapiens = organism: Homo sapiens; assay: Selectivity index, ratio of IC50 for human CYP11B2 to IC50 for human CYP11B1
[1] = molecular target: T1, Cytochrome P450 11B2, mitochondrial (Homo sapiens, UniProt P19099); assay: Inhibition of human CYP11B2 expressed in hamster V79MZ cells using 11-deoxycorticosterone substrate; type: cell-based
T1 sequence (P19099 whole entry): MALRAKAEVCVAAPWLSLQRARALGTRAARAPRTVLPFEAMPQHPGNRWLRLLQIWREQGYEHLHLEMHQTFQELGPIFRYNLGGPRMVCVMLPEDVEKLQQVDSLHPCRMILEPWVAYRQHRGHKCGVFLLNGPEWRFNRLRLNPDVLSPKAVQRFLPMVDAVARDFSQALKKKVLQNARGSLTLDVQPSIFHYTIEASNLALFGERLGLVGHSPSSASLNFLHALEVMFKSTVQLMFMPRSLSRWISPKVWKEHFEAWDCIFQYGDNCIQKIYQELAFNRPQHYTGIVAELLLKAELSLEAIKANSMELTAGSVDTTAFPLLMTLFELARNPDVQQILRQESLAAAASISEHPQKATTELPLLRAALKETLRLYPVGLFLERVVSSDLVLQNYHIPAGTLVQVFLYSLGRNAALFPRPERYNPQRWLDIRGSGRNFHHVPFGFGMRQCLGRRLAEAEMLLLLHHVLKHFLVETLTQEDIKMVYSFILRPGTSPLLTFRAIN

| Compound | Ratio IC50 (Homo sapiens) | IC50 [1] [µM] |
| --- | --- | --- |
| c1ccc2c(c1)ncn2CC12CC3CC(CC(C3)C1)C2 | 9 | – |
| CC(C)(C(=O)c1cccnc1)c1cccnc1 [METYRAPONE] | – | 0.072 |
